Laboratory results reported in paper PMC8626775, “Anti-schistosomal activities of quinoxaline-containing compounds: From hit identification to lead optimisation” (European Journal of Medicinal Chemistry, 2021).

System: HepG2 cells
Experiment: HepG2 MTT cytotoxicity assay
Settings: for Selectivity Index (SI) Adult worms: HepG2 CC50 versus adult worm EC50; for Selectivity Index (SI) Somula: HepG2 CC50 versus schistosomula EC50

Row | SMILES | Selectivity Index (SI) Adult worms | Selectivity Index (SI) Somula
1 | O=[N+]([O-])c1ccc2nc(Nc3ccc(Cl)c(Cl)c3)c(Nc3ccc(Cl)c(Cl)c3)nc2c1 [Compound 22, N^2, N^3-bis(3,4-dichlorophenyl)-6-nitroquinoxaline-2,3-diamine] | 3.11 | 0.59
2 | COc1ccc(Nc2nc3ccc([N+](=O)[O-])cc3nc2Nc2ccc(OC)c(C(F)(F)F)c2)cc1C(F)(F)F [Compound 35, N2, N3-bis(4-methoxy-3-(trifluoromethyl)phenyl)-6-nitroquinoxaline-2,3-diamine] | 9.73 | 0.65
3 | O=[N+]([O-])c1ccc2nc(Nc3ccc(Cl)cc3)c(Nc3ccc(Cl)cc3)nc2c1 [Compound 26, N^2, N^3-bis(4-chlorophenyl)-6-nitroquinoxaline-2,3-diamine] | 6.33 | 0.32
4 | O=[N+]([O-])c1ccc2nc(Nc3ccc(C(F)(F)F)cc3)c(Nc3ccc(C(F)(F)F)cc3)nc2c1 [Compound 31, 6-nitro-N2, N3-bis(4-(trifluoromethyl)phenyl)quinoxaline-2,3-diamine] | 10.21 | 0.26
